Data from US20070254313A1, “Gnal Splice Variant and Uses Thereof” (AstraZeneca AB, priority 2003, published 2007).

Target: human β2 adrenergic receptor (human) (UniProt P07550)
Experiment: cell-based or functional assay

Substance “human Gαs short (from UniProt P63092 2-394)” has a magnitude of (-)-isoproterenol-induced GTPγS binding above the baseline, membranes of Sf9 cells expressing β2 receptor and Gαs short (% above the baseline) of 350.
